Data: article PMC6380468, “Investigations on small molecule inhibitors targeting the histone H3K4 tri-methyllysine binding PHD-finger of JmjC histone demethylases” (Bioorganic & Medicinal Chemistry, 2018)

Target: T1, KDM5A_c1 (M1-L801) (Homo sapiens, UniProt P29375)
T1 construct: made in house
T1 sequence (P29375 1-801): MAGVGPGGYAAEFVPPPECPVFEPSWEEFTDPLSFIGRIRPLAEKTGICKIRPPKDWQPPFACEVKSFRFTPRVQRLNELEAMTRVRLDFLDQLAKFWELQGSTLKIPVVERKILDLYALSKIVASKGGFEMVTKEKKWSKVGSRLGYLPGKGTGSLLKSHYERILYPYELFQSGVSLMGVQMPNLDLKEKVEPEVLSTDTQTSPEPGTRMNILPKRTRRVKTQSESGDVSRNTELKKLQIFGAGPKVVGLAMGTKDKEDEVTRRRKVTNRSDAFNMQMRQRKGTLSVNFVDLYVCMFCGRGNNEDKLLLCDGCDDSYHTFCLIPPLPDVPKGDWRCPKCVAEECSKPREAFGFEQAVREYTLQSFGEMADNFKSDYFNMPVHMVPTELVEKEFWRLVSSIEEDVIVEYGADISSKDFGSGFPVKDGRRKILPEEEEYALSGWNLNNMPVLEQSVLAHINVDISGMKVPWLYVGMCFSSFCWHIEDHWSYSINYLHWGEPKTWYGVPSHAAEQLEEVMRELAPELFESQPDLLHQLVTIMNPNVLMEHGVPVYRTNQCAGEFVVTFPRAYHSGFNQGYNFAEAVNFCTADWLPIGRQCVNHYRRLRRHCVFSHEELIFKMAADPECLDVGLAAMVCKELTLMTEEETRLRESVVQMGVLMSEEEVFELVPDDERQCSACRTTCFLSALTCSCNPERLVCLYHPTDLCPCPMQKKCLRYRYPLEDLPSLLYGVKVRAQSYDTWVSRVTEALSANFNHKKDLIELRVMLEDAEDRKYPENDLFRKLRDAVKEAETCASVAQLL
Test: MALDI-TOF MS H3K4me3 demethylation assay, KDM5A_c1
Assay type: biochemical
Conditions: average ± StdDev of n = 2, read-out: IC50, inhibition of H3K4me3 demethylation activity, KDM5A_c1
Description: Two catalytically active constructs of KDM5A were employed, KDM5A_c1 (M1-L801) and KDM5A_c2 (ΔARID/PHD1, P13-S744 with L88-G353 (ARID/PHD1) replaced with a GGGG linker) and both KDM5A_c1 and KDM5A_c2 constructs lack the PHD2 and PHD3. […] A MALDI-TOF MS assay was used to measure the activity of H3K4me3 demethylation in the presence of inhibitors (Table 2, Fig. 3C and D).
The KDM5A mixture (5 µL, KDM5A-c1: 1.0 µM or KDM5A-c2: 0.5 µM) was pre-incubated with 100 nL inhibitors (in DMSO) for 10 min. […] The mixture was quenched using formic acid (5 µL, 1 v/v% in MQ) after 4 minutes (KDM5A-c1) or 3 minutes (KDM5A-c2). The stopped reaction (1 µL) was mixed with […] (CHCA) MALDI matrix (saturated solution in TFA (0.1%) in MilliQ water and trifluoroacetic acid (0.1%) acetonitrile (1:1)) at 1:1 ratio (2 µL), air dried and analysed using Bruker microflex MALDI-TOF controlled with FlexControl. The data were further processed using FlexAnalysis and excel.

CCCCc1oc2ccccc2c1C(=O)c1cc(I)c(OCCN(CC)CC)c(I)c1 [AMI, amiodarone, reference compound]
IC50: > 1000 µM
